According to patent US20060211075:

Molecular target: T1, peptide 23, Dap-substituted pyrene derivative at Y+3 (not fully specified)
T1 chain: EEEIYGEXEA

B1: Lck (protein)
chain: MGCGCSSHPEDDWMENIDVCENCHYPIVPLDGKGTLLIRNGSEVRDPLVTYEGSNPPASPLQDNLVIALHSYEPSHDGDLGFEKGEQLRILEQSGEWWKAQSLTTGQEGFIPFNFVAKANSLEPEPWFFKNLSRKDAERQLLAPGNTHGSFLIRESESTAGSFSLSVRDFDQNQGEVVKHYKIRNLDNGGFYISPRITFPGLHELVRHYTNASDGLCTRLSRPCQTQKPQKPWWEDEWEVPRETLKLVERLGAGQFGEVWMGYYNGHTKVAVKSLKQGSMSPDAFLAEANLMKQLQHQRLVRLYAVVTQEPIYIITEYMENGSLVDFLKTPSGIKLTINKLLDMAAQIAEGMAFIEERNYIHRDLRAANILVSDTLSCKIADFGLARLIEDNEYTAREGAKFPIKWTAPEAINYGTFTIKSDVWSFGILLTEIVTHGRIPYPGMTNPEVIQNLERGYRMVRPDNCPEELYQLMRLCWKERPEDRPTFDYLRSVLEDFFTATEGQYQPQP
Q: For B1, which Km is on record?
A: The Km was 96 µM.

Q: What about the Vmax of the same protein?
A: The Vmax was 1.5 µmol/min/mg.
